This is a selection; strong and weak results do not stand in their true shares. Active and inactive are the calls of the source.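 How the source made its calls: active means ratio of uncleaved NAD to its breakdown product ADP-ribose above 4, meaning the enzyme was inhibited; inactive means the rest.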
What follows are molecules tested against NAD(+) hydrolase SARM1 (Homo sapiens) (UniProt Q6SZW1) (assay: SARM1 TIR NADase inhibitors by HPLC, primary screen, cell lysate, HPLC readout (AID 1508615)). Conditions: HEK293T SAM-TIR lysate, NAD/ADPR ratio by HPLC; at 5 µM.

By UniProt entry, the sequences of proteins in these tests, tags left out.
UniProt Q6SZW1, whole entry, looked up: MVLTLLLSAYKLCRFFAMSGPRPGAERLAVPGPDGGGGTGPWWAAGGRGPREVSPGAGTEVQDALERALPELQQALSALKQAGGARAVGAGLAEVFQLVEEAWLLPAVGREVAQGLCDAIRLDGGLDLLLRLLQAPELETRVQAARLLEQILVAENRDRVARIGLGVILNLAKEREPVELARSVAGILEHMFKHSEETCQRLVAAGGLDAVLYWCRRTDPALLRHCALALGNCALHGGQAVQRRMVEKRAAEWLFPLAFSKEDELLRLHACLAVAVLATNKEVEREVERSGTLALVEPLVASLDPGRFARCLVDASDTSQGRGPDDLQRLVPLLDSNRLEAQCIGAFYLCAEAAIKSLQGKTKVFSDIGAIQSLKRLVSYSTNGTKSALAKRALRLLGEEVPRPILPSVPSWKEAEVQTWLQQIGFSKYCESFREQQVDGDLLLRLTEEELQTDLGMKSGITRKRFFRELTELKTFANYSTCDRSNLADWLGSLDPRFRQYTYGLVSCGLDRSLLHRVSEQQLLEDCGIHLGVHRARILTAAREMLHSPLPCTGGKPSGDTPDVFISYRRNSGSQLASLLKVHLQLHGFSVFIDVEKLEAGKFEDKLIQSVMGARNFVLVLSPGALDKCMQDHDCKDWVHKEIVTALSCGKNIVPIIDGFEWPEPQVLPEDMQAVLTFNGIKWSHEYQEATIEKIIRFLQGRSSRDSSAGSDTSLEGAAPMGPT

**Q.** `Nc1cccc2ccc([As](=O)(O)O)cc12` was tested. Which outcome did it give?
**A.** inactive

**Q.** For `CC(=O)Nc1ccc([As](=O)(O)O)cc1`, which outcome is on record?
**A.** inactive

**Q.** `O=C(O)c1ccccc1[As](=O)(O)O` was tested. Which outcome did it give?
**A.** inactive

**Q.** How did the outcome turn out when `c1cc(-c2nn[nH]n2)ccc1-c1nn[nH]n1` was run?
**A.** inactive

**Q.** Which outcome does the source give for `CC(C)c1nc(Nc2ccccc2)n(P(=O)(N(C)C)N(C)C)n1` here?
**A.** inactive

**Q.** `O=C(O)CNc1ccc([As](=O)(O)O)cc1` was tested. Which outcome did it give?
**A.** inactive

**Q.** With `Nc1ccc([As](=O)(O)O)c(O)c1` as the molecule, how does the outcome read?
**A.** inactive

**Q.** How did the outcome turn out when `O=C(Nc1cc([As](=O)(O)O)ccc1O)c1ccccc1` was run?
**A.** inactive

**Q.** `Nc1ccc([As](=O)(O)c2ccc([N+](=O)[O-])cc2)cc1` was tested. Which outcome did it give?
**A.** inactive

**Q.** Which outcome does the source give for `O=[As](O)(c1ccccc1)c1ccc(O)cc1` here?
**A.** inactive

**Q.** `O=[N+]([O-])c1ccc(OP2(=O)COCCO2)cc1` (configuration not stated) was tested. Which outcome did it give?
**A.** inactive

**Q.** Which outcome does the source give for `O=P1(N(CCCl)CCCl)OCCC2CCCCN21` (configuration not stated) here?
**A.** inactive

**Q.** With `O=C(O)COc1ccc([As](=O)(O)O)cc1[N+](=O)[O-]` as the molecule, how does the outcome read?
**A.** inactive

**Q.** With `Nc1cccc2c([As](=O)(O)O)cccc12` as the molecule, how does the outcome read?
**A.** inactive

**Q.** Which outcome does the source give for `CCCOP(=S)(Nc1nc(N)cc(=O)[nH]1)OCCC` here?
**A.** inactive

**Q.** With `O=[As](O)(c1cccc(O)c1)c1cccc(O)c1` as the molecule, how does the outcome read?
**A.** inactive

**Q.** `O=[As](O)(O)c1cccnc1` was tested. Which outcome did it give?
**A.** inactive

**Q.** For `CCOP(=O)(Nc1ccc(C)cn1)OCC`, which outcome is on record?
**A.** inactive

**Q.** For `Nc1cccc([As](=O)(O)c2ccccc2)c1`, which outcome is on record?
**A.** inactive

**Q.** How did the outcome turn out when `O=[As](O)(c1cccs1)c1cccs1` was run?
**A.** inactive

**Q.** `O=[As]1(O)c2ccccc2-c2ccccc21` was tested. Which outcome did it give?
**A.** inactive

**Q.** With `O=[N+]([O-])c1ccc(Nc2ccc(Oc3ccc([N+](=O)[O-])cc3[N+](=O)[O-])cc2)c([N+](=O)[O-])c1` as the molecule, how does the outcome read?
**A.** inactive

**Q.** How did the outcome turn out when `CCOC(=O)Nc1cccc([As](=O)(O)O)c1` was run?
**A.** inactive

**Q.** `CCOC(=O)Nc1ccc([As](=O)(O)O)c(O)c1` was tested. Which outcome did it give?
**A.** inactive

**Q.** For `COc1cc(I)ccc1[As](=O)(O)O`, which outcome is on record?
**A.** inactive

**Q.** Which outcome does the source give for `O=[As](O)(c1ccc(Cl)cc1)C1CCCCC1O` (configuration not stated) here?
**A.** inactive

**Q.** For `C[As](=O)(O)c1cccc(C(=O)O)c1`, which outcome is on record?
**A.** inactive

— PubChem BioAssay AID1508615 (Milbrandt Lab, Department of Genetics, Washington …, 2020)
